The values that follow are results of earlier work, collected in patent publication US20100190739A1, “Rapidly Dissolving Vitamin Formulation and Methods of Using the Same” (FLEMING AND COMPANY, PHARMACEUTICALS, priority 2008, published 2010).

The conditions of series [1]: Institute of Medicine.
For series [2] the following is noted: long term intake.

Consider Vitamin E, for which the Tolerable upper limit in series [1] is on record as 1500 IU/day. Moreover, the “Intake resulting in impaired thyroid function” value in series [2] is listed as 600 IU/day.
